Each structure is given as a SMILES string.

Chains of the proteins cited; added tags and fusions are not shown. Residues count along the entry.
UniProt P00797, 67-406 limits assumed: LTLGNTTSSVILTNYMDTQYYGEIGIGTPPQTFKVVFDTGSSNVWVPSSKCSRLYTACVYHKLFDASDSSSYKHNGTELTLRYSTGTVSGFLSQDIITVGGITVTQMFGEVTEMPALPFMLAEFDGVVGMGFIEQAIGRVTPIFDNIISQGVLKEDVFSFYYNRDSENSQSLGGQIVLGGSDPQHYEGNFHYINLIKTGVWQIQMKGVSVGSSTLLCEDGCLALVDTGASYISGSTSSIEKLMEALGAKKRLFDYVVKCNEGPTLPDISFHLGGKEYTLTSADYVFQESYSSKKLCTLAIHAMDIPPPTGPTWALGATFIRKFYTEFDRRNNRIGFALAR

The target in the first experiment is human kidney renin (Homo sapiens, UniProt P00797). Kind of experiment: Radioimmunoassay screen for renin inhibitors (angiotensin I generation). Particulars: read-out: IC50 Molar Concentration, purified human plasma angiotensinogen, maleate buffer pH 6.0, one hour at 37° C. How it is done:
The in vitro method for the screening of anti-renin compounds involves, first, angiotensin I generation, and second, the quantitation of the angiotensin I produced by radioimmunoassay.
The incubation medium consisted of 20 μl of purified human plasma angiotensinogen (1); 10 μl of human kidney renin (2); 5 μl of phenylmethylsulfonyl fluoride; 10 μl of disodium EDTA (10 mM); 10 μl of antirenin compound (5×10^-3, 5×10^-4, 5×10^-5) in dimethylformamide, or ethanol and a suitable amount of maleate buffer (77 mM, pH 6.0) to make a final volume of 500 μl. The reaction mixture is incubated for one hour at 37° C. and the enzymatic reaction is stopped by placing the tube in ice-cold water. The angiotensin I generated during the incubation is measured by a radioimmunoassay plasma renin activity kit (Clinical Assays, Inc.).
The incubation medium consisted of either 100 μl aliquots of the above reaction mixture or a standard amount of angiotensin I; 1000 μl of phosphate buffer (100 mM, pH7.6) and 100 μl of (^125 I)angiotensin in a gamma-coat, tube. After three hours of incubation at room temperature, the tubes are decanted, and the radioactivity of each tube is determined in a gamma counter. Duplicate determinations were performed for each incubation. The results are expressed in ng of angiotensin I generated per ml of generation medium per hour of incubation (ng/AI/ml/hr).
The results of this test on representative compounds of this invention appear in Table I, expressed as an IC50.
(1) The human plasma angiotensinogen derived from the blood of a person receiving oral contraceptive pills is purified by chromatography on a pepstatin-aminohexyl-agarose column.
(2) Human renin is prepared from human kidney.
Turning to `CCOP(=O)(OCC)O[C@@H](Cc1ccccc1)C(=O)N[C@@H](CC(C)C)C(=O)N[C@@H](CC1CCCCC1)[C@@H](O)C1CCCO1` (stereo partly shown), the IC50 was determined as 1.5 nM.

Take `CC(C)C[C@H](NP(=O)(OCCCBr)OCCc1ccccc1)C(=O)N[C@@H](CC1CCCCC1)[C@@H](O)[C@@H]1CCCO1` (stereo partly shown): the IC50 was 55 nM.

For the compound `CC(C)C[C@H](NP(=O)(Oc1ccccc1)Oc1ccccc1)C(=O)N[C@@H](CC1CCCCC1)[C@@H](O)[C@@H]1CCCO1`, the IC50 turned out to be 8100 nM.

Turning to `CC(C)COP(=O)(N[C@@H](Cc1ccccc1)C(=O)N[C@@H](CC(C)C)C(=O)N[C@@H](CC1CCCCC1)[C@@H](O)[C@@H]1CCCS1)OCCBr` (stereo partly shown), the IC50 turned out to be 0.71 nM.

As to `CCOP(=O)(OCC)O[C@@H](CC1CCCCC1)C(=O)N[C@@H](CC(C)C)C(=O)N[C@@H](CC1CCCCC1)[C@@H](O)C1CCCO1` (stereo partly shown), the IC50 was 3.5 nM.

Regarding `CC(C)C[C@H](NP(=O)(OCCBr)OCCc1ccccc1)C(=O)N[C@@H](CC1CCCCC1)[C@@H](O)[C@@H]1CCCO1` (stereo partly shown), the IC50 came to 140 nM.

`CCOP(=O)(N[C@@H](CC1CCCCC1)C(=O)N[C@@H](CC(C)C)C(=O)N[C@@H](CC1CCCCC1)[C@@H](O)[C@@H]1CCCO1)OCC`: the IC50 is 0.1 nM.

With `CC(C)C[C@H](NP(=O)(OCc1ccccc1)OCc1ccccc1)C(=O)N[C@@H](CC1CCCCC1)[C@@H](O)[C@@H]1CCCO1`, the IC50 is 27 nM.

Regarding `CC(C)C[C@H](NP(=O)(OCCCc1ccccc1)OCCc1ccccc1)C(=O)N[C@@H](CC1CCCCC1)[C@@H](O)[C@@H]1CCCO1` (stereo partly shown), the IC50 is 16 nM.

As to `CCOP(=O)(N[C@@H](CC1CCCCC1)C(=O)N[C@@H](CC(C)C)C(=O)N[C@@H](CC1CCCCC1)[C@@H](O)C1CCCO1)OCC` (stereo partly shown), the IC50 is 3 nM.

Take `CC(C)C[C@H](NP(=O)(OCCNCc1ccccn1)OCCc1ccccc1)C(=O)N[C@@H](CC1CCCCC1)[C@@H](O)[C@@H]1CCCO1` (single isomer, unassigned) [drawing 51]: the IC50 was determined as 83 nM.

As for `CCOP(=O)(OCC)O[C@@H](Cc1ccccc1)C(=O)N[C@@H](CC(C)C)C(=O)N[C@@H](CC1CCCCC1)[C@@H](O)c1cccs1`, the IC50 was 290 nM.

Consider `CCCCOC(=O)C[C@H](NC(=O)[C@H](Cc1ccccc1)NP(=O)(OCC)OCC)C(=O)N[C@@H](CC1CCCCC1)[C@@H](O)[C@@H]1CCCO1`, for which the IC50 came out at 3100 nM.

As to `CCOP(=O)(N[C@@H](Cc1ccc(OC)cc1)C(=O)N[C@@H](CC(C)C)C(=O)N[C@@H](CC1CCCCC1)[C@@H](O)[C@@H]1CCCO1)OCCBr` (stereo partly shown), the IC50 came out at 0.52 nM.

Consider `CCOP(=O)(OCC)O[C@@H](Cc1ccccc1)C(=O)N[C@@H](CC(C)C)C(=O)N[C@@H](CC1CCCCC1)[C@@H](O)c1ccco1`, for which the IC50 worked out at 140 nM.

As for `CC(C)COP(=O)(N[C@@H](Cc1ccccc1)C(=O)N[C@@H](CC(C)C)C(=O)N[C@@H](CC1CCCCC1)[C@@H](O)[C@@H]1CCCS1)OCCN1CCOCC1` (stereo partly shown), the IC50 was 3.5 nM.

For `CCOP(=O)(OCC)O[C@@H](Cc1ccccc1)C(=O)N[C@@H](CC(C)C)C(=O)N[C@@H](CC1CCCCC1)[C@@H](O)[C@@H]1CCCO1`, the IC50 amounted to 3 nM.

On to `CC(=O)NCCOP(=O)(CCCc1ccccc1)N[C@@H](CC(C)C)C(=O)N[C@@H](CC1CCCCC1)[C@@H](O)[C@@H]1CCCO1` (stereo partly shown), for which the IC50 amounted to 33 nM.

For `CC(C)C[C@H](NP(=O)(OCCc1ccccc1)OCCN(C)C)C(=O)N[C@@H](CC1CCCCC1)[C@@H](O)[C@@H]1CCCO1` (single isomer, unassigned), the IC50 is 550 nM.

On to `CCOP(=O)(N[C@@H](Cc1ccccc1)C(=O)N[C@@H](CC(C)C)C(=O)N[C@@H](CC1CCCCC1)[C@@H](O)C1CCCO1)OCC` (stereo partly shown), for which the IC50 stood at 0.2 nM.

In the case of `CCOP(=O)(N[C@@H](Cc1ccccc1)C(=O)N[C@@H](CC(C)C)C(=O)N[C@@H](CC1CCCCC1)[C@@H](O)[C@@H]1CCCO1)OCC`, the IC50 came out at 0.1 nM.

For the compound `CC(C)C[C@H](NP(=O)(ONC(=O)OCc1ccccc1)Oc1ccccc1)C(=O)N[C@@H](CC1CCCCC1)[C@@H](O)[C@@H]1CCCO1` (stereo partly shown), the IC50 was determined as 1800 nM.

As for `CC(C)C[C@H](NP(=O)(OCCNCc1ccccn1)OCCc1ccccc1)C(=O)N[C@@H](CC1CCCCC1)[C@@H](O)[C@@H]1CCCO1` (single isomer, unassigned) [drawing 50], the IC50 turned out to be 100 nM.

Turning to `CC(C)C[C@H](NP(=O)(OCCNCc1cccnc1)OCCc1ccccc1)C(=O)N[C@@H](CC1CCCCC1)[C@@H](O)[C@@H]1CCCO1` (single isomer, unassigned), the IC50 stood at 120 nM.

Regarding `CCOP(=O)(N[C@@H](Cc1ccccc1)C(=O)N[C@@H](CC(=O)O)C(=O)N[C@@H](CC1CCCCC1)[C@@H](O)[C@@H]1CCCO1)OCC`, the IC50 was determined as 1000 nM.

As to `COP(=O)(CCCc1ccccc1)N[C@@H](CC(C)C)C(=O)N[C@@H](CC1CCCCC1)[C@@H](O)[C@@H]1CCCO1` (stereo partly shown), the IC50 amounted to 51 nM.

Take `CCOP(=O)(N[C@@H](Cc1ccccc1)C(=O)N[C@@H](CC(C)C)C(=O)N[C@@H](CC1CCCCC1)[C@@H](O)[C@H]1CCCO1)OCC`: the IC50 is 8.1 nM.

Still in this experiment, the particulars now being: read-out: IC50 Molar Concentration, purified human plasma angiotensinogen, maleate buffer pH 6.0, one hour at 37° C., tested form: 2HCl.
As to `CC(C)C[C@H](NP(=O)(OCCNCc1ccncc1)OCCc1ccccc1)C(=O)N[C@@H](CC1CCCCC1)[C@@H](O)[C@@H]1CCCO1` (stereo partly shown), the IC50 turned out to be 100 nM.

As to `CC(C)C[C@H](NP(=O)(OCCNCc1cccnc1)OCCc1ccccc1)C(=O)N[C@@H](CC1CCCCC1)[C@@H](O)[C@@H]1CCCO1` (single isomer, unassigned), the IC50 was 82 nM.

Still in this experiment, the particulars now being: read-out: IC50 Molar Concentration, purified human plasma angiotensinogen, maleate buffer pH 6.0, one hour at 37° C., tested form: HCl.
With `CC(C)C[C@H](NP(=O)(OCCNC1CCCCC1O)OCCc1ccccc1)C(=O)N[C@@H](CC1CCCCC1)[C@@H](O)[C@@H]1CCCO1` (stereo partly shown), the IC50 worked out at 220 nM.

Take `CCOP(=O)(N[C@@H](Cc1ccc(OC)cc1)C(=O)N[C@@H](CC(C)C)C(=O)N[C@@H](CC1CCCCC1)[C@@H](O)[C@@H]1CCCO1)OCCN(C)C` (stereo partly shown): the IC50 was 33 nM.

For `CC(C)C[C@H](NP(=O)(OCCc1ccccc1)OCCN1CCNC(=O)C1)C(=O)N[C@@H](CC1CCCCC1)[C@@H](O)[C@@H]1CCCO1` (stereo partly shown), the IC50 came to 270 nM.

As to `CC(C)C[C@H](NP(=O)(OCCc1ccccc1)OCCN(C)C)C(=O)N[C@@H](CC1CCCCC1)[C@@H](O)[C@@H]1CCCO1` (single isomer, unassigned), the IC50 worked out at 640 nM.

On to `CC(C)C[C@H](NP(=O)(OCCNCc1ccccc1)OCCc1ccccc1)C(=O)N[C@@H](CC1CCCCC1)[C@@H](O)[C@@H]1CCCO1` (stereo partly shown), for which the IC50 came to 230 nM.

These data come from patent US5189023A.
